Measured values taken from PubChem BioAssay AID759 (NMMLSC, 2007).
The list shows a part of the results, in another mix than the full data. The source made the active and inactive calls.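 How the source made its calls: active means GTP binding activity at least 20% away from the 100% baseline, either lowered as inhibitor or raised as activator; inconclusive means flagged as likely green fluorescent, judged across all proteins in the well; inactive means the rest.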

Molecular target: GTPase HRas (Homo sapiens) (UniProt P01112)
Experiment: modulators of GTP binding to HRas wildtype, primary screen, biochemical, bead-based flow cytometry, multiplex (AID 759);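 further: 0% = unlabeled GTP competition control and 100% = no-compound control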
Conditions: GST-Ras wt beads, Bodipy-FL-GTP binding, at 10 µM, actives lie on both sides

Structure (SMILES)	GTP binding activity
CC(=O)NC(SC(=S)N(C)C)C(Cl)(Cl)Cl (stereo not given)	inactive: 102%
O=C(OC1CN2CCC1CC2)c1cccc(Cl)c1 (stereo not given)	inactive: 103%
C(Cc1nn[nH]n1)Cc1nn[nH]n1	inactive: 104%
O=P(Nc1ccccn1)(c1ccc(Br)cc1)c1ccc(Br)cc1	inactive: 96%
O=P(Nc1nccs1)(c1ccccc1)c1ccccc1	inactive: 103%
CC(C)C(=O)NC(Sc1ccccc1)C(Cl)(Cl)Cl (stereo not given)	inactive: 100%
c1nnnn1CCn1cnnn1	inactive: 104%
CC(=O)Nc1ccc(Oc2c([N+](=O)[O-])cc([N+](=O)[O-])cc2[N+](=O)[O-])cc1	inactive: 89%
CCOc1ccc(C2=NCC(CBr)S2)cc1 (stereo not given)	inactive: 94%
O=P1(Nc2nc3ccc(Cl)cc3s2)COc2ccccc2O1 (stereo not given)	inactive: 95%
CC(C)(C)C(=O)NC(Sc1ccccc1)C(Cl)(Cl)Cl (stereo not given)	inactive: 94%
CCC(=O)N1C2C3N(C(=O)CC)C1C1N(C(=O)CC)C(C(N1C(=O)CC)N3C(=O)CC)N2C(=O)CC	inactive: 99%
Cc1ccc(OP(=O)(Nc2ccccn2)Oc2ccc(C)cc2)cc1	inactive: 92%
CC(=O)NC(SC(=S)N(CC(C)C)CC(C)C)C(Cl)(Cl)Cl (stereo not given)	inactive: 97%
COC(=O)c1cc2c(s1)N=C(c1ccccc1)N(C)P2(=O)N1CCOCC1 (stereo not given)	inactive: 96%
O=c1c2cc([N+](=O)[O-])ccc2[nH]c2c([N+](=O)[O-])cc([N+](=O)[O-])cc12	inactive: 94%
CCOC(=O)NC(Sc1ccccc1)C(Cl)(Cl)Cl (stereo not given)	inactive: 97%
c1ccc(-c2nn[nH]n2)c(-c2nn[nH]n2)c1	inactive: 95%
O=C(NC1CCS(=O)(=O)C1)NP(=S)(Oc1ccccc1)Oc1ccccc1 (stereo not given)	inactive: 96%
CCNC(=S)/N=C(\N)N[N+](=O)[O-]	inactive: 98%
CCN(N=Nc1nonc1N)c1nonc1N	inactive: 102%
Cc1cc(SC(NC(=O)c2ccc(F)cc2)C(Cl)(Cl)Cl)ncn1 (stereo not given)	inactive: 99%
CCOP(=O)(Nc1ccccc1)OCC	inactive: 105%
O=C(NC(Sc1ccncn1)C(Cl)(Cl)Cl)c1ccccc1 (stereo not given)	inactive: 100%
Cc1c2non([O-])c-2c(C)[n+](=O)[n+]1[O-]	inactive: 96%

Structure (SMILES)	GTP binding activity
Oc1ccccc1CNc1ccccn1	inactive: 102%
CC(C)CC(=O)NC(Sc1ccc(Cl)cc1)C(Cl)(Cl)Cl (stereo not given)	inactive: 102%
Cc1ccc(N/C(=N/P(=O)(N2CCOCC2)N2CCOCC2)N2CCOCC2)cc1	inactive: 97%
NC(=O)c1cc([N+](=O)[O-])cc([N+](=O)[O-])c1N	inactive: 98%
CN1CCCC(OC(=O)C(c2ccccc2)c2ccccc2)C1 (stereo not given)	inactive: 100%
Clc1ccc(Cl)c(NC2=NCC(CBr)S2)c1 (stereo not given)	inactive: 97%
CCN(/C(=N/P(=O)(N1CCOCC1)N1CCOCC1)N1CCOCC1)c1ccc(OC)cc1	inactive: 102%
CC1CCN(C(=O)Oc2c(Cl)cc(Cl)c3cccnc23)CC1	inactive: 100%
CN(C)C(=O)OCCc1n(C)cc[n+]1C	inactive: 102%
COc1ccc(C2=NCC(CBr)S2)cc1 (stereo not given)	inactive: 98%
O=[N+]([O-])c1cc([N+](=O)[O-])c(CCNc2ccccc2)c([N+](=O)[O-])c1	inactive: 100%
CCc1nc2c(n1)c1c(non1O)c1c2no[n+]1[O-]	inactive: 96%
Cc1ccc(NP(=O)(Oc2ccccc2)Oc2ccccc2)nc1	inactive: 100%
CC(=O)N1C2C3N(C(C)=O)C1C1N(C(C)=O)C(C(N1C(C)=O)N3C(C)=O)N2C(C)=O	inactive: 97%
O=[N+]([O-])c1cccc2n[nH]nc12	inactive: 104%
O=[N+]([O-])c1ncn(CCn2ncnc2[N+](=O)[O-])n1	inactive: 96%
Cc1cc(SC(NC=O)C(Cl)(Cl)Cl)ncn1 (stereo not given)	inactive: 100%
O=P(Nc1ccccn1)(c1cccc2ccccc12)c1cccc2ccccc12	inactive: 95%
Cc1cc(SC(NC(=O)c2ccccc2)C(Cl)(Cl)Cl)nc(C(C)C)n1 (stereo not given)	inactive: 99%
CCC(C)N(CC(C)C)C(=S)SC(NC(C)=O)C(Cl)(Cl)Cl (stereo not given)	inactive: 102%
COP1(=S)c2c(C)nn(CCC#N)c2N=C(c2ccc(F)cc2)N1C (stereo not given)	inactive: 98%
O=C(COc1ccccc1)OC1CN2CCC1CC2 (stereo not given)	inactive: 103%
COc1ccc(N/C(=N/P(=O)(N2CCOCC2)N2CCOCC2)N2CCOCC2)cc1	inactive: 99%
Cc1c2c(nc3ccccc13)SC(C(Cl)Cl)C2 (stereo not given)	inactive: 101%
Cc1cc(=O)[nH]c(N[N+](=O)[O-])n1	inactive: 97%

Structure (SMILES)	GTP binding activity
COc1ccc2nc(NP(=O)(c3ccccc3)c3ccccc3)sc2c1	inactive: 98%
ClCCSc1nnc(-c2cccnc2)o1	inactive: 104%
O=[N+]([O-])c1cc([N+](=O)[O-])c(-c2ccn[nH]2)s1	inactive: 100%
CC(C)NC(=O)NP(=O)(Oc1ccccc1)Oc1ccccc1	inactive: 97%
CCN(CC)C(=S)SC(NC=O)C(Cl)(Cl)Cl (stereo not given)	inactive: 98%
Cc1ccc2nc3c(c(C)c2c1)CC(C(Cl)Cl)S3 (stereo not given)	inactive: 97%
CCOP1(=S)c2c(C)nn(CCC#N)c2N=C(c2ccc(F)cc2)N1C (stereo not given)	inactive: 95%
O=[N+]([O-])c1ccc2c(c1)nnn2O	inactive: 102%
O=P(Nc1nccs1)(Oc1ccccc1)Oc1ccccc1	inactive: 98%
O=P(Nc1nccs1)(c1ccccc1)c1nc2ccccc2s1 (stereo not given)	inactive: 97%
CCOP1(=S)c2c(C)nn(CCC#N)c2N=C(c2ccccc2F)N1C (stereo not given)	inactive: 98%
Cc1ccc(NCCc2c([N+](=O)[O-])cc([N+](=O)[O-])cc2[N+](=O)[O-])cc1	inactive: 98%
CCOP(=O)(Nc1cccc2ccccc12)OCC	inactive: 102%
COc1cc(C2NCCC3(OCCO3)C2(C)C)cc(OC)c1OC (stereo not given)	inactive: 95%
COc1cc(C(=O)NCC2(N3CCOCC3)CCCCC2)cc(Cl)c1OC(C)C	inactive: 96%
Cc1cccc(OCC(=O)OC2CN3CCC2CC3)c1 (stereo not given)	inactive: 104%
CC(C)/C=N\N=C(\N)N[N+](=O)[O-]	inactive: 95%
O=P1(Nc2ccccn2)COc2ccccc2OC1	inactive: 101%
Clc1n[nH]nc1-c1nn[nH][15n]1	inactive: 103%
O=P1(Nc2ncccn2)COc2ccccc2OC1	inactive: 102%
Cc1ccc(OCC(=O)OC2CN3CCC2CC3)cc1 (stereo not given)	inactive: 103%
O=P1(Nc2ccc(Br)cn2)COc2ccccc2OC1	inactive: 100%
CC1CCC(C(C)C)C(OP(=O)(Nc2ccccn2)c2ccccc2)C1 (stereo not given)	inactive: 95%
Cc1nn(-c2ccccc2)c2c1P(=O)(N1CCOCC1)N(C)C(c1ccccc1)=N2 (stereo not given)	inactive: 102%
CN(C)C1(CNC(=O)c2ccc(S(C)(=O)=O)cc2)CCCCC1	inactive: 98%
